Target: T1, human c-Met protein (Homo sapiens, UniProt P08581)
T1 sequence (P08581 25-1390): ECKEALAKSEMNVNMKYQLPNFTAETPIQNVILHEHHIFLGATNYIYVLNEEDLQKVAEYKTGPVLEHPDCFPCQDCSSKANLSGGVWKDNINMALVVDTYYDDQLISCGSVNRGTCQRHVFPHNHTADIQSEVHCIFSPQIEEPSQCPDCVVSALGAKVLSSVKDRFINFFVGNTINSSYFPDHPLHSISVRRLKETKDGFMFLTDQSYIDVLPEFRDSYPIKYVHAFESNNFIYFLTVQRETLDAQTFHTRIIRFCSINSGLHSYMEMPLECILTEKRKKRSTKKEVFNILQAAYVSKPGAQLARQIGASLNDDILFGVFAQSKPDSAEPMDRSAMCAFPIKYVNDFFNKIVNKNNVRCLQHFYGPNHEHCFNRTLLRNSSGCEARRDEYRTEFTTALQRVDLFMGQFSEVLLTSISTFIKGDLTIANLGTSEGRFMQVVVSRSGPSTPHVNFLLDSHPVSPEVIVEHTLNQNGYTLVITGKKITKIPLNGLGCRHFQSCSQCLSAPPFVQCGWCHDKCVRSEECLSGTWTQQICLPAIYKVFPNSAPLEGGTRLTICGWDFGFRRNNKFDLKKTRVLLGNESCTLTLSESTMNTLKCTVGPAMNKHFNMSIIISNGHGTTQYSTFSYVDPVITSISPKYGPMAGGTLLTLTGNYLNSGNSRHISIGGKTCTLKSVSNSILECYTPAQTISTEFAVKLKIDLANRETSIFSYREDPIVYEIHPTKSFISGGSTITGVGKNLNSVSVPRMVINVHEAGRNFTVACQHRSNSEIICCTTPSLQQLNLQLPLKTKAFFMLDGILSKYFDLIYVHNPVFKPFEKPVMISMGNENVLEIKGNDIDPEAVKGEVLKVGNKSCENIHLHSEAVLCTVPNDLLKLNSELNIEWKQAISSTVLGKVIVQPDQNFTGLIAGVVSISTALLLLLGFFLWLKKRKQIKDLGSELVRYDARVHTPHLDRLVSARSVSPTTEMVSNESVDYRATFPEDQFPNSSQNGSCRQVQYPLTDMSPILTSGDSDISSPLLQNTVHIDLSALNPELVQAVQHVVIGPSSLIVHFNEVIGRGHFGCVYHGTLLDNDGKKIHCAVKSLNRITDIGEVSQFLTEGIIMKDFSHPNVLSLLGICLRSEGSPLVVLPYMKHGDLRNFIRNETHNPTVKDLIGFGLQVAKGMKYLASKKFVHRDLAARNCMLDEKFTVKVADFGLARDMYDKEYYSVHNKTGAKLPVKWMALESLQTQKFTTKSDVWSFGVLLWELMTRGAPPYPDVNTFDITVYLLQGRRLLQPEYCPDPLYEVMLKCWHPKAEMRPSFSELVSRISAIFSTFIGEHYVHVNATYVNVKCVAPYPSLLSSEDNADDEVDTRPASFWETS
Test: Biacore binding affinity to c-Met antigen
Settings: antibody immobilized on CM5 chip, human c-Met 0.39 nM to 100 nM
Method: Affinities of the 4 types of antibodies against c-Met antigen prepared in Example 7 were measured by using a Biacore (GE healthcare). About 80 to 110 RU of each antibody was immobilized on a CM5 chip, 9 different concentrations ranging from 0.39 nM to 100 nM of human c-Met protein, as an antigen, were injected at a rate of 30 ul/min to obtain kon values and koff values as shown in Table 3. Then, KD values were calculated based thereon.

koff: 0.000723 s⁻¹
kon: 329000 M⁻¹ s⁻¹
B1: huAbF46: humanized anti-c-Met antibody from chAbF46; combination of the H4-heavy chain and the H4-light chain (antibody)
heavy: EVQLVESGGGLVQPGGSLRLSCAASGFTFTDYYMSWVRQAPGKGLEWLGFIRNKANGYTTEYSASVKGRFTISRDNSKNTLYLQMNSLRAEDTAVYYCARDNWFAYWGQGTLVTVSSASTKGPSVFPLAPSSKSTSGGTAALGCLVKDYFPEPVTVSWNSGALTSGVHTFPAVLQSSGLYSLSSVVTVPSSSLGTQTYICNVNHKPSNTKVDKKV[left out - human IgG1 Fc]
light: DIQMTQSPSSLSASVGDRVTITCKSSQSLLASGNQNNYLAWHQQKPGKAPKMLIIWASTRVSGVPSRFSGSGSGTDFTLTISSLQPEDFATYYCQQSYSAPLTFGQGTKVEIKRTVAAPSVFIFPPSDEQLKSGTASVVCLLNNFYPREAKVQWKVDNALQSGNSQESVTEQDSKDSTYSLSSTLTLSKADYEKHKVYACEVTHQGLSSPVTKSFNRGE
